Antibody variant affinities, Ab-14 light chain, assay B

Data: MIT Lincoln Laboratory AlphaSeq set, Li et al. 2023, doi:10.1038/s41467-023-39022-2, as distributed in FLAb.

Antigen: PDVDLGDISGINAS, a 14-residue peptide of the SARS-CoV-2 spike HR2 region.

Parent: Ab-14, a human scFv built as VH, a 15-residue (Gly4Ser)3 linker, VL. Only the CDRs of the light chain vary.
VH: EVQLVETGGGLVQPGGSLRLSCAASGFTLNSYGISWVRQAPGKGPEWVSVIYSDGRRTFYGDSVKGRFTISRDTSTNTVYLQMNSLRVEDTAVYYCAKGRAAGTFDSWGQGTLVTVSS
VL: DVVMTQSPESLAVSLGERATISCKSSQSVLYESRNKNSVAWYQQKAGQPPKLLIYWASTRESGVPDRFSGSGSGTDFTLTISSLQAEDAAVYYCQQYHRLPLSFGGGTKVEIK

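The parent was found by panning a naive human phage display library on the peptide. The variants were designed computationally from a first round of random CDR variants and then made and measured. Their group label is 14L_En_Gen (En: ensemble of fine-tuned language models; Gen: genetic algorithm). The scFvs were displayed on barcoded MATa yeast, the peptide on MATalpha yeast. The frequency of each diploid, read from paired DNA barcodes, reflects how well the two displayed proteins bind. Each replicate has its own calibration line, from reference interactions of the BCL2 family. Each pool was mated in six replicate cultures.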

Variants are written as CDR1, CDR2 and CDR3 of the light chain (limits as in the source). Parent: KSSQSVLYESRNKNSVA, WASTRES, QQYHRLPLS. Affinities are written as log10 Kd with Kd in nM; a lower number is a better binder. "nd" means that the variant was in the library but no mating with the target was seen in that replicate; the authors take this as a sign of poor binding, and no number exists. Of ten entries with the parent sequence, four were seen in most replicates (averages 0.34 to 2.37), three in one and three in none, so single entries are noisy. The range of this assay differs from that of the first round, and the authors advise against merging the two. Empty control strains, which show no peptide, gave a signal in 4% of pairings with all light chain designs; the median was 2.64 and 95% of these signals were weaker than 1.59. No background was subtracted. For each scFv, signals with the empty controls are counted beside the result. In the paper, a design with two or fewer of six values counts as a poor binder.

KISQMQRVGSTHNNSIA | EEATRAK | QQYHRLPLF: 0.88, 0.70, 0.98, 0.86, 1.36, 2.84 (controls 0 of 18).
SLGLATMLEEYVRNSVA | NNSTREE | QQYDRLPLS: nd, nd, nd, nd, nd, 2.70 (controls 0 of 18).
KIGMTLNTLMHTKNNVA | DLVTREQ | QQYHRLPLS: 0.78, 0.48, 0.56, 0.53, 0.40, 0.21 (controls 1 of 18).
IVSQLMMWGMHAKNSIA | EAQTRLN | QQYDRLPLI: nd, nd, nd, nd, nd, nd (controls 0 of 18).
IVSQLMLWGMHAKNSIA | EAQTRVN | QQYDRLPLF: 1.06, 0.68, 1.63, 1.18, 0.99, 1.39 (controls 0 of 18).
KLTMLTGTEKVRGNNVA | EMETREK | QQYNRLPLA: 0.31, 0.21, 0.06, -0.55, 0.45, 0.36 (controls 0 of 18).
MISQLYNMGTFAINSVA | QASIRNA | QQYDRLPLA: 1.04, 1.02, 0.51, 1.07, 0.55, 1.04 (controls 1 of 18).
KLYSITGTEKVHGNNVA | EMETRER | QQYNRLPLA: 0.17, -0.06, 0.41, 0.13, 0.26, 0.30 (controls 0 of 18).
TISQVMNTLTRHGNNVA | DLTEREV | QQYFRLPLE: 0.56, 0.38, 0.32, 0.21, 0.13, 0.45 (controls 2 of 18).
MVTQMAMSGMTNKRSVA | NAETRED | QQYHRLPLI: nd, nd, nd, 1.27, nd, nd (controls 0 of 18).
IVSQLMLWGMKAKNSIA | EAELRLN | QQYDRLPLI: 0.91, 0.77, 0.95, 0.84, 1.53, 1.41 (controls 0 of 18).
HITYGMMVHGRHSKSIA | QAETRAK | QQYDRLPLI: nd, 1.61, 1.90, 1.16, 2.38, 1.58 (controls 0 of 18).
KLVNFMNRGTHHTSNIA | DAALREE | QQYYRLPLA: 0.36, 0.24, 0.14, 0.20, 0.27, 0.03 (controls 0 of 18).
HITMGMYVAGRHSHSIA | QAETREK | QQYDRLPLA: 1.02, 1.21, 0.83, 0.88, 1.07, 1.25 (controls 1 of 18).
KFSQMANQFSVSMNAVA | EMSTREN | QQYNRLPLS: 0.94, 0.72, 0.71, 0.78, 0.81, 1.33 (controls 1 of 18).
TISQITSLFSQTINNVA | EVSTRET | QQYDRLPLS: 1.55, 1.60, 1.02, 0.84, 1.16, 1.06 (controls 2 of 18).
KISQMVRVGSTVGNSIA | EEVTRAK | QQYHRLPLF: 1.47, 1.22, 0.85, 0.93, 1.06, 1.26 (controls 1 of 18).
KISQMVRVGSTHSNSIA | EEATRAK | QQYYRLPLA: 1.25, 0.54, 0.65, 0.74, 0.52, 0.50 (controls 0 of 18).
KIGMTLNTLMHQKNNVA | DLVTREA | QQYHRLPLS: 0.47, 0.17, 0.07, 0.08, 0.11, 0.32 (controls 3 of 18).
HITYGMYVAGRHSSSIA | QAETRAK | QQYDRLPLI: 1.43, 0.88, 0.95, 0.65, 1.42, 1.41 (controls 1 of 18).
MLSMVTEGMRRKHNSVA | DNSTKES | QQYDRLPLS: nd, nd, 2.31, 2.56, 2.64, 2.25 (controls 0 of 18).
MISQISNMGQFAINSVA | QASIRNS | QQYDRLPLM: 0.74, 0.52, 0.56, 0.47, 0.27, 1.43 (controls 0 of 18).
KISMLINQTFQMANNVA | EMVTRVK | QQYNRLPLS: 0.67, 0.54, 0.28, 0.50, 0.45, 0.41 (controls 0 of 18).
MISQLYNMGTFAINSVA | QAEIRNA | QQYDRLPLT: 1.48, 1.56, 1.14, 1.49, 0.80, 2.56 (controls 0 of 18).
MISQLFNMGQFAINSVA | QASTRNS | QQYDRLPLM: 1.24, 1.64, 0.68, 1.36, 0.58, 2.08 (controls 0 of 18).
MMSQVTGLGQRHRNNVA | QTSTREP | QQYDRLPLI: 0.72, 0.46, 0.57, 0.82, 0.70, 0.86 (controls 3 of 18).
IVSQLMLWGYHAKNSIA | EAQTRLN | QQYDRLPLF: nd, nd, nd, 2.13, nd, nd (controls 0 of 18).
TISELHNQALGMRNNVA | NNQTRED | QQYDRLPLS: nd, nd, nd, nd, 2.19, nd (controls 0 of 18).
IVSQLMLWGMHVKNSIA | EAMTRLN | QQYDRLPLF: 0.49, 0.64, 0.52, 0.66, 0.57, 0.67 (controls 0 of 18).
TIGAQLMYGTRNRSNVA | EVSQRLN | QQYDRLPLF: 1.48, 1.45, 1.22, 1.28, 1.38, 1.45 (controls 4 of 18).
QLGMTLKELSKVKNNVA | EMTTRLN | QQYYRLPLS: 0.37, 0.17, -0.02, 0.09, 0.09, 0.35 (controls 0 of 18).
MVSQLMLWGHLAKNSIA | EAQTRIN | QQYDRLPLF: 1.82, 2.56, nd, 2.16, nd, 1.98 (controls 1 of 18).
TISQITSLFSQTINNVA | EVTTREE | QQYDRLPLA: 1.17, 1.15, 0.52, 1.20, 1.33, 1.34 (controls 2 of 18).
KISMLINMTFEMSNNVA | EMVTRMK | QQYNRLPLS: 1.37, 0.92, nd, 1.27, 1.71, 2.16 (controls 1 of 18).
HMSMLTLSGQRHRNAVA | QMTTREN | QQYDRLPLT: 1.40, 1.16, 1.42, 1.45, 1.86, 1.32 (controls 1 of 18).
IIHESYGLMSHKQSSIA | DNSTRED | QQYDRLPLS: nd, nd, nd, nd, nd, nd (controls 1 of 18).
KIGYNMGTESFRKDNIA | DVRDREE | QQYYRLPLS: 0.82, 0.74, 0.68, 0.72, 0.90, 1.00 (controls 1 of 18).
KLSMVTGHLSYEKNNVA | EMETREN | QQYDRLPLS: 0.63, 0.47, 0.59, 0.63, 0.39, 0.67 (controls 0 of 18).
KFSQMSNSMSVSKSAVA | EMSTRPE | QQYNRLPLM: 0.40, 0.39, 0.39, 0.19, 0.20, 0.31 (controls 0 of 18).
HMSMITLQGMRHRNSVA | QMTTRVN | QQYDHLPLS: 1.73, 2.31, 2.02, 2.28, 2.06, nd (controls 0 of 18).
KLSQTHGMESVNRNSVA | ELVTRMH | QQYNRLPLS: 0.60, 0.78, 0.65, 0.62, 0.79, 1.25 (controls 0 of 18).
SISGFMKTLSSHKNNVA | DMTNRGD | QQYDRLPLS: 0.43, 0.90, 0.23, 0.73, 0.65, 0.46 (controls 2 of 18).